# Binding of CDR-mutated scFvs to a peptide of the spike HR2 region

Target: peptide PDVDLGDISGINAS, taken from heptad repeat 2 (HR2) of SARS-CoV-2 spike.

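Variants in AAYL50 differ from the parent at up to three CDR positions; double and triple changes were sampled at random. In AlphaSeq, yeast of one mating type display the scFv and yeast of the other type display the target. Binding brings cells together so that they mate, and sequencing counts the barcode pairs among the diploids. Scores were corrected for input abundance and mapped to Kd with protein pairs of known affinity run in the same pool. There are three technical replicates.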

Parent: Ab-14, a human scFv built as VH, three GGGGS repeats, VL. Only the CDRs of the light chain vary.
VH: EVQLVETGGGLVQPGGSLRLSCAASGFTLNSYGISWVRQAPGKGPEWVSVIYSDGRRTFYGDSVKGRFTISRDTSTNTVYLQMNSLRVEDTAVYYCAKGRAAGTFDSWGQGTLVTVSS
VL: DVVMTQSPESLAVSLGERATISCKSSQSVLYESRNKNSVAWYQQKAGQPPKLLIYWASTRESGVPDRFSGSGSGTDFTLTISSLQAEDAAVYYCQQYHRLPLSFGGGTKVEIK

Positions count from residue 1 of the parent VL; R34L puts L in place of R. Kd is apparent (estimated from mating counts) and averaged on the log scale over replicates with a signal. Smaller is tighter. "nd" means that the variant was in the library but no mating with the target was seen in any replicate; the authors take this as a sign of poor binding, and no number exists. Parent in this assay: reference entry 4.4 nM, copy in this library 48 nM. Background: pairings of library AAYL50 with three empty control strains gave a value in 18% of cases (median 15 µM, 5th percentile 970 nM). Values in that range, when seen in few replicates, are hard to tell from nonspecific mating.

changes,Kd (apparent),replicates with signal
R34L A57T,4.5 nM,3/3
A57L Y97C S103I,2.5 µM,2/3
N37L W56M E61I,4.2 µM,3/3
K24S S25T A40C,nd,0/3
S33A R60F E61Q,5.0 nM,3/3
Q27I V39Q R99T,nd,0/3
V39Y Q96P P101Q,1.2 µM,1/3
S26M L100R P101Q,110 nM,3/3
Y31E S38G T59Y,nd,0/3
E32G N35Y S103I,18 nM,3/3
Q27K S28M L102M,120 nM,3/3
Q27Y L102T,190 µM,1/3
S25L Y31V R99C,15 nM,3/3
S26M S38M L100R,41 µM,2/3
S58P Q96W Y97S,120 µM,2/3
K24S V39M W56R,54 nM,3/3
V39M T59P P101R,nd,0/3
K24E K36Q S62I,9.5 nM,3/3
E32W R34F S38D,nd,0/3
Q27T A57R T59I,65 nM,3/3
V39H L100E,nd,0/3
W56E S62T L100W,1.0 nM,3/3
K24R R60L E61A,7.0 nM,3/3
Q27Y E32V K36M,370 nM,3/3
S26I V29N W56R,1.1 nM,3/3
K24H S25Q A57Y,nd,0/3
Y31M N37K S103M,57 nM,3/3
L30M Y97K,nd,0/3
S26H H98A,4.3 nM,3/3
S26V Q27M S28K,130 nM,2/3
K24V V29W H98Q,130 nM,3/3
S28D A57L S103A,1.5 µM,3/3
S28H A57F H98Y,nd,0/3
T59P H98P,94 µM,2/3
K24Q S38H S62E,19 nM,3/3
Q27P L100H P101V,42 nM,3/3
E61M R99Y S103A,13 nM,3/3
K24Y L30I V39L,37 nM,3/3
S26T L100Y P101T,nd,0/3
S62R S103H,nd,0/3
S25M S28H S62R,2.1 nM,3/3
E61K H98I,5.4 µM,2/3
W56V Q96Y,nd,0/3
V39Y W56A E61D,nd,0/3
K24R R99N,7.8 nM,3/3
Q95W Q96C P101T,36 nM,3/3
T59C H98I R99I,260 nM,3/3
S33A E61M S62N,13 nM,3/3
S28F N35P W56P,78 µM,3/3
S25V Q95D,1.4 µM,3/3
S33E E61D Y97K,7.1 nM,3/3
N35F A40M R60I,nd,0/3
S25M S58I Q96S,nd,0/3
N35C Q96H S103E,2.9 µM,3/3
S33Q R34Q L102Q,nd,0/3
N37E V39C S103F,59 µM,1/3
S62F H98Y,30 µM,1/3
S38H S58W Q96W,nd,0/3
T59M Q95Y P101R,980 nM,1/3
S26N S62V,31 nM,3/3
S26L S58W E61H,200 nM,1/3
K36W A40G,86 µM,3/3
Q27P A57N Y97N,5.2 µM,2/3

The measurements come from Engelhart et al. 2022 (doi:10.1038/s41597-022-01779-4) through the FLAb antibody collection.